Earlier results on one compound are cited in patent publication US6936632B2, “Fused pyrrole compounds, pharmaceutical agents containing the same, and the use thereof” (Merckle GmbH, priority 2000, dated 2005).

Sequences of proteins named here, by UniProt entry; tags and fusion partners are left off. Residues count along the entry.
UniProt P35354, 18-604, species assumed: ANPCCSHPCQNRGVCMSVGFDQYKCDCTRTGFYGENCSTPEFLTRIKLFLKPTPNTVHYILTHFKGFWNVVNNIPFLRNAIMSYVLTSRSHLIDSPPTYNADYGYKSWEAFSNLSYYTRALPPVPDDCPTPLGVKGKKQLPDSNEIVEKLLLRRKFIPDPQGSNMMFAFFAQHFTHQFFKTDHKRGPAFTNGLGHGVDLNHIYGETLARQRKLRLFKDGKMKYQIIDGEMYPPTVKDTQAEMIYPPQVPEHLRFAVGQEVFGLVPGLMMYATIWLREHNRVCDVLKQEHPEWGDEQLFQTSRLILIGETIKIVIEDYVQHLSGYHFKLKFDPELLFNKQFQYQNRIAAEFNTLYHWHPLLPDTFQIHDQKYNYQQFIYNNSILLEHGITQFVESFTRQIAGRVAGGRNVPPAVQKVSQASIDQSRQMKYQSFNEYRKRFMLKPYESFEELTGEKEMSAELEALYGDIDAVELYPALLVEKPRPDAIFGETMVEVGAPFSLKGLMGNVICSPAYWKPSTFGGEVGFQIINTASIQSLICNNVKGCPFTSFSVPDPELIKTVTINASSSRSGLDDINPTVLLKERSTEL

The data set addresses cyclooxygenase-2 (Homo sapiens, UniProt P35354). The settings on record: cited from earlier work.

`CS(=O)(=O)c1ccc(C2=C(c3ccc(F)cc3)C(=O)OC2)cc1` [lactone 5]: the “activity on cyclooxygenase-2” value was “high activity” and the “selectivity for cyclooxygenase-2 isoform” value is on record as “high selectivity”.
